What was measured:
[1] = target: motilin receptor (Homo sapiens, UniProt O43193); assay: Selectivity versus the motilin receptor
[2] = target: human ghrelin receptor (hGHS-R1a) (Homo sapiens, UniProt Q92847)

By UniProt entry, the sequences of proteins in these tests, tags left out.
UniProt O43193, whole entry: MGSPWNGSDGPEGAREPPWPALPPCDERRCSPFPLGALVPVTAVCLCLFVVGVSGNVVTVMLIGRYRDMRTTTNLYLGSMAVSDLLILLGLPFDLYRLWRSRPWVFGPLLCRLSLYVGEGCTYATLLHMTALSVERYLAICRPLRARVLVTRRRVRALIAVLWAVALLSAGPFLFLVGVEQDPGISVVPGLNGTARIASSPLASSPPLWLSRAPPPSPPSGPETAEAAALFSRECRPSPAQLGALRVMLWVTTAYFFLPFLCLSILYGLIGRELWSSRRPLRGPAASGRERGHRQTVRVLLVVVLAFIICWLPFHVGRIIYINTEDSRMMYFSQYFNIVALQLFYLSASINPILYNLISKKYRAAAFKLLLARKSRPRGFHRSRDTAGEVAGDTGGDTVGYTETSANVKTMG
UniProt Q92847, whole entry: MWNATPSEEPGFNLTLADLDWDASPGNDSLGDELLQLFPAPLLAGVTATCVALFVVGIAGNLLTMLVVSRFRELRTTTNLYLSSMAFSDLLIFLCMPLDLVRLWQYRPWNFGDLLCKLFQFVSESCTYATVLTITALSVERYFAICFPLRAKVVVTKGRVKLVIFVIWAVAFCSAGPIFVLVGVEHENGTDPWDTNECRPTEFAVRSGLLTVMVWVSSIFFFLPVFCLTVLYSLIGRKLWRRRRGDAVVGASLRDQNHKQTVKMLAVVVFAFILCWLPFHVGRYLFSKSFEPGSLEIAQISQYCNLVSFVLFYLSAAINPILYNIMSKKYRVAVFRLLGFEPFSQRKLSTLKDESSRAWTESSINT

Row | Structure (SMILES) | Selectivity [1] | EC50 [2] [nM]
1 | C[C@@H]1C(=O)N[C@H](Cc2ccc(F)cc2)C(=O)NCCCc2ccc(F)cc2OCCN[C@@H](C2CC2)C(=O)N1C | 2500/1 | –
2 | CC[C@H](C)[C@@H]1NCCCc2ccccc2C=CCNC(=O)[C@@H](Cc2ccccc2)NC(=O)[C@@H](C)N(C)C1=O | – | 1 to 100
3 | CCC(C)[C@@H]1NC[C@@H](C)Oc2ccccc2CCCNC(=O)[C@@H](Cc2ccccc2)NC(=O)[C@@H](C)N(C)C1=O (single isomer, unassigned) [36] | – | 100 to 1000

Reference: patent publication USRE42013E1
